Bounds are passed on as bounds.

This passage reports MIC results from DBAASP.

For test [1], the system named is Staphylococcus aureus ATCC 12600. The test is described as follows: ≥ marks a high value that may be exact or a test limit, other limits are often not marked, values filed in µg/mL are converted to µM.
Test [2] relates to Escherichia coli K-12. Described as above.

As for `CC(C)C[C@H](NC(=O)[C@@H](NC(=O)[C@H](C)NC(=O)CNC(=O)[C@H](Cc1c[nH]c2ccccc12)NC(=O)[C@H](CC(N)=O)NC(=O)[C@@H](N)CC(C)C)C(C)C)C(=O)N[C@@H](CCCCN)C(=O)N[C@@H](Cc1cnc[nH]1)C(=O)N[C@H](C(=O)N[C@H](C(=O)N[C@@H](CCCCN)C(=O)O)C(C)C)C(C)C` [LNWGAVLKHVVK], the MIC was not below 128 µM in test [1] and not below 64 µM in test [2].

In test [1], `CC(C)C[C@H](NC(=O)[C@H](CC(C)C)NC(=O)[C@H](CC(N)=O)NC(=O)[C@H](CC(N)=O)NC(=O)[C@H](CC(C)C)NC(=O)[C@@H](N)C(C)C)C(=O)N[C@@H](CCCN=C(N)N)C(=O)O` [VLNNLLR] showed an MIC not below 128 µM.

The MIC is the smallest concentration in the dilution series that meets the test's criterion for growth inhibition. The low end stands for inhibition by little substance, the high end for a need for much substance.
